Tested on: captopril-treated saline-drinking SHRSP
Experiment: Angiotensin II-induced renal damage in captopril-treated saline-drinking SHRSP, Protocol 2 (Example A-8)
Type: in vivo, rat (SHRSP/A3N)
Settings: captopril 50 mg/kg/d; angiotensin II 25 ng/min; eplerenone 100 mg/kg/d
Description: Animals. Studies were conducted in accordance with institutional guidelines using male SHRSP/A3N (generations F-75 to F-78), n=37, from our local colony. These animals were bred from NIH stock, derived from the SHRSP/A3N substrain described originally by Okamoto and coworkers (Okamoto K et al. Circ. Res. 34 and 35 (suppl I):I-143-I-153.). All animals were housed in a room maintained on a 12:12-h light:dark-cycle and an ambient temperature of 22±1° C. in the Animal Care Facility at New York Medical College. Rats were weaned at 4 weeks of age and allowed free access to Purina Lab Chow 5001 (Ralston Purina, St. Louis, Mo.) and tap water until the initiation of experimental protocols.
SHRSP were placed on Stroke-Prone Rodent Diet (#39-288, Zeigler Bros Inc., Gardners, Pa.) and 1% NaCl drinking solution ad libitum starting at 8.3 weeks of age. […] Systolic blood pressure and heart rate were measured each week. […]
Assays and Analyses. Systolic blood pressure and heart rate of awake animals were measured by tail-cuff plethysmography using a Natsume KN-210 manometer and tachometer (Peninsula Laboratories Inc., Belmont, Calif.). […] Urinary protein concentration was determined by the sulfosalicylic acid turbidity method. Plasma aldosterone was measured by radioimmunoassay using ^125I-aldosterone as a tracer (Coat-a Count Aldosterone, Diagnostic Products Co., Los Angeles, Calif.). […]

Amino acid sequences for entries named in this document (tags omitted). A change or cut given only in a name is not applied to a line headed by its entry.
UniProt P01019: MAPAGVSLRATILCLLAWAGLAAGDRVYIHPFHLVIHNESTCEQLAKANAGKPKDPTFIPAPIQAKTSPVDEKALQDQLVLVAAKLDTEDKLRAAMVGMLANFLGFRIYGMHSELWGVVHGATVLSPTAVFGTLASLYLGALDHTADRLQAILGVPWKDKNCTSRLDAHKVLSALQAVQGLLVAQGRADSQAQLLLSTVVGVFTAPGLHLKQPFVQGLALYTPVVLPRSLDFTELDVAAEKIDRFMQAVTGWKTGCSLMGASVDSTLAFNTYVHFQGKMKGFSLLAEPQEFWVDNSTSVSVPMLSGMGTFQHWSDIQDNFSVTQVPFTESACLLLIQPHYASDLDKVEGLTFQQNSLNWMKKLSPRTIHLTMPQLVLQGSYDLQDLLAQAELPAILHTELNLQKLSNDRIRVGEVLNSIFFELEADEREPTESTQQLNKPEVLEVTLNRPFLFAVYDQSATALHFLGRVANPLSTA

Angiotensin II: Angiotensin II (human type) infused by osmotic minipump (DRVYIHPF; Angiotensin-2; UniProt P01019 25-32, looked up)
preterminal systolic blood pressure: 224±4 mm Hg

— patent US20070191324A1, “Methods for treatment or prophylaxis of aldosterone-mediated pathogenic effects in a subject using an epoxy-steroidal aldosterone antagonist” (priority 1999, published 2007)
